# Assay results as given in publication PMC9677951 (Journal of medicinal chemistry, 2020).
# Chains of the proteins cited; added tags and fusions are not shown. Lines headed by an entry give the natural chain unless they say otherwise; changes in a name come on top.
# UniProt Q12809: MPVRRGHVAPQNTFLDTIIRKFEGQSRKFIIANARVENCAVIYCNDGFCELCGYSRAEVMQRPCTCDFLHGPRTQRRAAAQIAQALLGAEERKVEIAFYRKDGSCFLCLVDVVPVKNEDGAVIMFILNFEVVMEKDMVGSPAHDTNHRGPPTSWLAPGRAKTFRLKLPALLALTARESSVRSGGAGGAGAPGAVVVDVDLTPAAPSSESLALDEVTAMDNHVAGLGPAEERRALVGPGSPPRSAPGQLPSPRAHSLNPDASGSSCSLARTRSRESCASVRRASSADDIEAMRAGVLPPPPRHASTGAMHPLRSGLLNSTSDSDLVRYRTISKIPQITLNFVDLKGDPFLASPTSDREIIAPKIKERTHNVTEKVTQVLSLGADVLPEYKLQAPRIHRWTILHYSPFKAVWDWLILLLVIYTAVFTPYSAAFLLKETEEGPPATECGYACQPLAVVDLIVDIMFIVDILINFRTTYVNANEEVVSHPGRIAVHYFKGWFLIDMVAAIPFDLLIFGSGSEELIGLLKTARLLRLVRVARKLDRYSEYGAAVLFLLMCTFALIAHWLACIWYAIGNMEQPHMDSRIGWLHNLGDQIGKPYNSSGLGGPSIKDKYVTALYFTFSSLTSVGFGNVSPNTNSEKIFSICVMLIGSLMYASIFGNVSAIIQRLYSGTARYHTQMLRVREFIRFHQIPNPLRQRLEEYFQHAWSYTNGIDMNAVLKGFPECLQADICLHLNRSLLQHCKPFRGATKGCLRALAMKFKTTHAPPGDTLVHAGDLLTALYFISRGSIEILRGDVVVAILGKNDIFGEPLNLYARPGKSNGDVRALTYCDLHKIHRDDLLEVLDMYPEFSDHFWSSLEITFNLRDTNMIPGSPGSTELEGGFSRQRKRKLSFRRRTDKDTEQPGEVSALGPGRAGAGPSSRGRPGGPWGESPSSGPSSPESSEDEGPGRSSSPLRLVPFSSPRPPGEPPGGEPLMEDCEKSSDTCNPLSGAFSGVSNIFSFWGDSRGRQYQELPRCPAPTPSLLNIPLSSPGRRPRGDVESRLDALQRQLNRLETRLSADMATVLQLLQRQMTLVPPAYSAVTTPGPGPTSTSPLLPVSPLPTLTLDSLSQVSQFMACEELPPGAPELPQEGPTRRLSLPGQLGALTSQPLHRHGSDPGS
# Values joined by “and” are separate entries in the source; they are usually repeats but may differ in a detail not shown here. Equal values may be shown once. Read-outs that look alike come from different tables or passages of the source.
# Tests used:
# MT-4 cells [1] = conditions: for cytotoxicity at fixed concentration: at the concentration of 300 μM
# in vitro [2] = conditions: human, microsomes
# hERG potassium channel = hERG potassium channel (Homo sapiens, UniProt Q12809); conditions: HEK293 cells, individual cells 1-3
# MT-4 cells [3] = conditions: previously reported; ref [9]-[13]; cited from earlier work
# in vitro [4] = conditions: human, CC50, mock-infected MT-4 cells, MTT method
smiles,measurement,setting,value
"Cc1cc(C#N)cc(C)c1Oc1nc(Nc2ccc(C#N)c(F)c2)nc2ccsc12 [Compound 9b, 4-((2-((4-cyano-3-fluorophenyl)amino)thieno[3,2-d]pyrimidin-4-yl)oxy)-3,5-dimethylbenzonitrile]",cytotoxicity at fixed concentration,MT-4 cells [1],no cytotoxicity
"Cc1cc(C#N)cc(C)c1Oc1nc(Nc2ccc(C#N)c(F)c2)nc2sccc12 [Compound 11b, 4-((2-((4-cyano-3-fluorophenyl)amino)thieno[2,3-d]pyrimidin-4-yl)oxy)-3,5-dimethylbenzonitrile]",cytotoxicity at fixed concentration,MT-4 cells [1],no cytotoxicity
"Cc1cc(/C=C/C#N)cc(C)c1Oc1nc(Nc2ccc(C#N)c(F)c2)nc2ccsc12 [Compound 24b, (E)-4-((4-(4-(2-cyanovinyl)-2,6-dimethylphenoxy)thieno[3,2-d]pyrimidin-2-yl)amino)-2-fluorobenzonitrile]",CLint scaled,in vitro [2],15.6 mL/min/kg
same,"hERG inhibitory effect, single cell",hERG potassium channel; 0.3 μM,4.12% and 1.75%
same,"hERG inhibitory effect, single cell",hERG potassium channel; 1 μM,9.21%
same,"hERG inhibitory effect, single cell",hERG potassium channel; 3 μM,11.90%
same,"hERG inhibitory effect, single cell",hERG potassium channel; 30 μM,22.85%
"Cc1cc(C#N)cc(C)c1Oc1nc(Nc2ccc(C#N)cc2)nc(N)c1Br [ETR, Etravirine]",CC50,MT-4 cells [3],> 4.6 µM
same,CC50,"MT-4 cells [1]; mock-infected MT-4 cells, MTT method",> 4.59 µM
same,CC50,in vitro [4],> 4.58 µM
